Earlier results, collected in US7645767B2, “Pharmaceutical compositions for treating chronic pain and pain associated with neuropathy” (Trinity Laboratories, Inc., priority 2006, dated 2010).

Protein sequences, listed by entry. Tags and fused reporters are not part of them.
UniProt P35372, whole entry: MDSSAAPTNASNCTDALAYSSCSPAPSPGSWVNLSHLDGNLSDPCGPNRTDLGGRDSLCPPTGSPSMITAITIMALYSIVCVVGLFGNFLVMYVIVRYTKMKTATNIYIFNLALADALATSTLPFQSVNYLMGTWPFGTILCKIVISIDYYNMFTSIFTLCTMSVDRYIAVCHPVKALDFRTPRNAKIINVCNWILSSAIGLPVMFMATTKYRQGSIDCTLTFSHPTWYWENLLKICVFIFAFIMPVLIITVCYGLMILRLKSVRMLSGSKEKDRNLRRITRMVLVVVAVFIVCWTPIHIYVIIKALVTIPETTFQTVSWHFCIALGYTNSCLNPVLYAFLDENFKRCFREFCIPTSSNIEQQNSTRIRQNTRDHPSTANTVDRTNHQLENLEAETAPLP

Molecular target: μ-opiate receptors (Homo sapiens, UniProt P35372)
Conditions: relative to tramadol

## CN(C)C[C@H]1CCCC[C@]1(O)c1cccc(O)c1 [O-desmethyltramadol]
  affinity for the μ-opiate receptor compared with parent drug: higher affinity
